Reference: ChEMBL document CHEMBL5038647, “Elastase Inhibitor Cyclotheonellazole A: Total Synthesis and In Vivo Biological Evaluation for Acute Lung Injury” (J Med Chem, 2022)
pIC50: −log10 of the molar value.

Target: T1, Neutrophil elastase (Homo sapiens, UniProt P08246)
T1 sequence (P08246 whole entry): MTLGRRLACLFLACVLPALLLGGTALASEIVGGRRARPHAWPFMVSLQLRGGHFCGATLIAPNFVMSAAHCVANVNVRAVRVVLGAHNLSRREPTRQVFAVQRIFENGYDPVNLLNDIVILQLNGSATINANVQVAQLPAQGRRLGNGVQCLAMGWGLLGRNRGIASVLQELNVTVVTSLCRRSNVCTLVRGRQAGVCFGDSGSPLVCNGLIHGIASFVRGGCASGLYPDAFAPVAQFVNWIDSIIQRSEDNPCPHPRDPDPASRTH
Assay: Inhibition of human neutrophil elastase incubated for 40 mins in presence of Boc-Gln-Ala-Arg-AMC by fluorescence microtiter plate method
Format: cell-based

A pIC50 of 6.15 was found for `CC(C)(C)C(=O)Oc1ccc(S(=O)(=O)Nc2ccccc2C(=O)NCC(=O)O)cc1` [SIVELESTAT] in this work.
